Some results for these compounds are left out of this collection, so the calls shown say nothing about other tests. Activity calls are given as the source filed them.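 The calls were made as follows: active = chemicals rated mutagenic or weakly mutagenic in the Salmonella bacterial test by one literature review, or positive overall by another; inconclusive = no clear call, values can overlap the other calls; inactive = the rest.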 Entries that show only a call come without a potency.
Tested on: Salmonella typhimurium Ames mutagenicity, literature compiled
Test: DSSTox (CPDBAS) Carcinogenic Potency Database Salmonella Mutagenicity
Text: The Carcinogenic Potency Database (CPDB) is a unique and widely used international resource of the results of over 6500 chronic, long-term animal cancer tests on over 1500 chemical substances. The CPDB provides easy access to the bioassay literature, with qualitative and quantitative analyses of both positive and negative experiments that have been published over the past 50 years in the general literature and by the National Cancer Institute/National Toxicology Program. The CPDB standardizes the diverse literature of cancer bioassays that vary widely in protocol, histopathological examination and nomenclature, and in the published author's choices of what information to provide in their papers. Results are reported in the CPDB for tests in rats, mice, hamsters, dogs, and nonhuman primates, and are based on the most positive result among all experiments for each sex-species. The DSSTox CPDBAS (all species) file incorporates data from the CPDB Summary Tables for the full list of over 1500 chemical substances tested in at least one species.
A chemical is classified within the CPDB as mutagenic, i.e. "active", in the Salmonella assay if it was evaluated overall as either "mutagenic" or "weakly mutagenic" by Zeiger [Zeiger, E. (1997) Genotoxicity Database. In: Gold and Zeiger, Eds. Handbook of Carcinogenic Potency and Genotoxicity Databases. […]

N#CC(C#N)=Cc1ccccc1Cl
outcome: active

— PubChem BioAssay AID1194 (EPA DSSTox, 2008)
